Our source for the Ki values is US7700560B2 (University of Maryland, Baltimore County, priority 2003, dated 2010).

The target in the assay is T1, human GlxI (Homo sapiens, UniProt Q04760).
T1 construct: hGlxI from human erythrocytes; from tissue; host or cells: human erythrocytes
T1 sequence (Q04760 2-184 limits assumed): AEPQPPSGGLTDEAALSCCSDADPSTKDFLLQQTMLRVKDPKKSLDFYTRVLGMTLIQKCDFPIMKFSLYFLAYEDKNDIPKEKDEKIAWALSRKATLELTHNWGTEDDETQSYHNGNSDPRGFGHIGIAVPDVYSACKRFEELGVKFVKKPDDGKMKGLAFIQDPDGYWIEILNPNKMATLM
As to the kind of experiment: Competitive inhibition constants (Kis) with human GlxI. Format: biochemical. How it is done:
Competitive inhibition constants (Kis) of bivalent and monovalent enzyme inhibitors with human GlxI or yeast GlxI (yGlxI) were obtained from the change in the initial rates of product formation at various concentrations of the substrate in the presence or absence of the inhibitor. To a 1 ml cuvette containing 50 mM sodium phosphate buffer, pH 7.0, 0.5 mM EDTA, 25° C. and different concentrations of thiohemiacetal substrates with fixed concentrations of inhibitor was added approximately 0.02 U of enzyme. The initial rates of product formation were followed on the basis of the increase in absorbancy at 240 nm. Inhibition constants were obtained by fitting the initial rate data to the equation for competitive inhibition.

For “N—(O-propanoyl tetraethyleneglycolamine O,O′-dipropylamine diethyleneglycol bis(suberic acid) S—(N-p-bromo-phenyl-N-hydroxycarbamoyl)glutathione [polyBHG2-62]”, the Ki (usually the dissociation constant of the complex between target and ligand, obtained from inhibition or displacement) was determined as 1 nM.
